# Literature values, collected in patent US20190111064A1 (Interstice Therapeutics, LLC, priority 2017, published 2019).
# Details: FNB guideline; children aged 9 and older and adults
substance,measurement,value
vitamin D,upper limit (UL),"4,000 IU"
